# Results taken from PubChem BioAssay AID1235 (PCMD, 2008).
# Only a part is listed here, and it is no random draw. Active and inactive are the calls of the source.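 The calls were made as follows: active = inhibition above 30% in each of the two pooled mixtures holding the compound, so the lower value exceeds 30%; inactive = the rest.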
# Test: blockers of serum C3 deposition on LPS – biochemical, ELISA, human serum, orthogonally pooled compounds, primary screen (AID 1235);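 also: 0% = serum in Mg-EGTA without compound and 100% = EDTA serum blank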
# Conditions: Human serum alternative complement pathway, LPS-coated ELISA, tested in compound mixtures, at 5 µM, stronger effect = higher value
# Outline: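 Test system: human serum alternative complement pathway, C3 deposition on LPS-coated wells; also added: Plate-bound LPS; doses: 5 µM per compound in ten-compound mixtures; schedule: 1 h at 37 °C; detection: Anti-C3 ELISA, OD 450 nm; evaluation: percent inhibition of C3 deposition onto LPS; repeats: two pool placements per compound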
row,Structure (SMILES),inhibition
1,COC(=O)c1cc2c(s1)N=C(c1ccccc1)N(C)P2(=O)N1CCOCC1 (stereo not given),inactive: 13.2%
2,O=P1(Nc2nc3ccc(Cl)cc3s2)COc2ccccc2O1 (stereo not given),inactive: 0.655%
3,O=P(Nc1nccs1)(c1ccccc1)c1ccccc1,inactive: -5.88%
4,c1nnnn1CCn1cnnn1,inactive: -18.9%
5,O=C(OC1CN2CCC1CC2)c1cccc(Cl)c1 (stereo not given),inactive: 10.8%
6,CCc1nc2c(n1)c1c(non1O)c1c2no[n+]1[O-],inactive: 10.8%
7,Cc1c2non([O-])c-2c(C)[n+](=O)[n+]1[O-],inactive: -4.97%
8,O=C(OC1CN2CCC1CC2)C12CC3CC(CC(C3)C1)C2 (stereo not given),inactive: 18.1%
9,COP1(=S)c2c(C)nn(CCC#N)c2N=C(c2ccc(F)cc2)N1C (stereo not given),inactive: 15.9%
10,O=C(COc1ccccc1)OC1CN2CCC1CC2 (stereo not given),inactive: 5.42%
11,O=P1(Nc2ncccn2)COc2ccccc2OC1,inactive: 0.985%
12,O=P1(Nc2ccc(Br)cn2)COc2ccccc2OC1,inactive: -3.48%
13,Cc1ccc(OCC(=O)OC2CN3CCC2CC3)cc1 (stereo not given),inactive: -14.2%
14,Cc1nn(-c2ccccc2)c2c1P(=O)(N1CCOCC1)N(C)C(c1ccccc1)=N2 (stereo not given),inactive: -16.6%
15,O=P1(Nc2ccccn2)COc2ccccc2OC1,inactive: 4.88%
16,Clc1n[nH]nc1-c1nn[nH][15n]1,inactive: 14%
17,Cc1cccc(OCC(=O)OC2CN3CCC2CC3)c1 (stereo not given),inactive: -4.33%
18,CCOP1(=S)c2c(C)nn(CCC#N)c2N=C(c2ccc(F)cc2)N1C (stereo not given),inactive: -1.84%
19,CCOP1(=S)c2c(C)nn(CCC#N)c2N=C(c2ccccc2F)N1C (stereo not given),inactive: -3.95%
20,O=P(Nc1nccs1)(c1ccccc1)c1nc2ccccc2s1 (stereo not given),inactive: 6.21%
